Values of other authors, collected in paper PMC12925725, “A potent nonapeptide inhibitor for the CXCL12/HMGB1 heterocomplex: A computational and experimental approach” (Computational and Structural Biotechnology Journal, 2025).

Tested on: HMGB1-mediated activation of TLR4
Conditions: cited from earlier work

Compound: CC[C@H](C)[C@H](NC(=O)[C@H](Cc1c[nH]c2ccccc12)NC(=O)[C@H](CCCNC(=N)N)NC(=O)[C@H](CCC(=O)O)NC(=O)[C@H](Cc1ccc(O)cc1)NC(=O)[C@H](Cc1c[nH]cn1)NC(=O)[C@H](Cc1ccc(O)cc1)NC(=O)CN)C(=O)N[C@@H](Cc1c[nH]cn1)C(=O)O
- effect on HMGB1's ability to trigger TLR4: without impacting HMGB1's ability to trigger TLR4
